{"source": "patent US7578996B2", "about": "“Cetylpyridinium chloride as an antimicrobial agent in ophthalmic compositions” (Advanced Medical Optics, Inc., priority 2004, dated 2009)", "origin": "cited, not measured here", "details": "in water", "data": [{"substance": "tocopherol polyethylene glycol succinate [TPGS]", "values": [{"measurement": "critical micelle formation concentration (cmc)", "result": 200, "unit": "ppm"}]}]}
